Results on 2 compounds are retold here after ChEMBL document CHEMBL1135203, “Benzodiazepine inhibitors of the MMPs and TACE” (Bioorg Med Chem Lett, 2002).

In this experiment the target is Collagenase 3 (Homo sapiens, UniProt P45452).

In turn, `O=C(NO)C1CN(C(=O)c2ccccc2)c2ccccc2CN1S(=O)(=O)c1ccc(Oc2ccc(Cl)cc2)cc1` (configuration not stated) yielded an IC50 of 2 nM. The same measure for `COCC(=O)N1CC(C(=O)NO)N(S(=O)(=O)c2ccc(Oc3ccc(Cl)cc3)cc2)Cc2ccccc21` (configuration not stated): 2 nM.

Broadly, the IC50 is the point on the concentration scale where inhibition reaches its midpoint. A lower IC50 goes with inhibition by little substance.
